US6825223B2, “Anilide compounds and pharmaceutical compositions comprising them” (Kowa Company, Ltd., priority 1996, dated 2004)

Biological target: T1, ACAT in J774 cell (Mus musculus, UniProt Q61263)
T1 construct: J774 cell was cultured with DMEM culturing solution; endogenous in cells; host or cells: J774 cells
T1 sequence (Q61263 1-540): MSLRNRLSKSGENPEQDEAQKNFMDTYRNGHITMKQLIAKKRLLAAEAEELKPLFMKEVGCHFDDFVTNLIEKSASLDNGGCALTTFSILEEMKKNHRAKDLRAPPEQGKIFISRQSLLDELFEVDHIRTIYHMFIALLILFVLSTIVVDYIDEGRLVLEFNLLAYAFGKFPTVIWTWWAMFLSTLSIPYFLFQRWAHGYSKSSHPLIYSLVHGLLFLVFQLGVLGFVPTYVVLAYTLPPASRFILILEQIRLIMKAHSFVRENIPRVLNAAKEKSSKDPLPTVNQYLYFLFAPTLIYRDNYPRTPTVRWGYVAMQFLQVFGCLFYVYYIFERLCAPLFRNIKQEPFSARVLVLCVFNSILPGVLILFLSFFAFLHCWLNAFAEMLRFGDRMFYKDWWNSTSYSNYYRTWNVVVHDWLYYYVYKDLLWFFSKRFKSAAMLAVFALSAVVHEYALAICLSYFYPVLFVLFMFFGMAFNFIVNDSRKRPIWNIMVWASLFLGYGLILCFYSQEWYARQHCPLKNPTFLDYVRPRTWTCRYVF
Assay: ACAT inhibiting activity in J774 cell (anti-foaming activity)
Type: cell-based
Details: ratio of the two cell IC50 values

Q: With `CCCCCCCCCCCCCCSCC(=O)Nc1c(C(C)C)cccc1C(C)C` [Control (2), N-(2,6-diisopropylphenyl) -2-(tetradecylthio)acetamide, reference compound] as the compound, how does the “IC50 (HepG 2)/IC50 (J 774)” value read?
A: 9.33
